The values below come from PMC5651862 (Scientific Reports, 2017).

Chains of the proteins cited; added tags and fusions are not shown. Residues count along the entry.
UniProt P37231, 29-505: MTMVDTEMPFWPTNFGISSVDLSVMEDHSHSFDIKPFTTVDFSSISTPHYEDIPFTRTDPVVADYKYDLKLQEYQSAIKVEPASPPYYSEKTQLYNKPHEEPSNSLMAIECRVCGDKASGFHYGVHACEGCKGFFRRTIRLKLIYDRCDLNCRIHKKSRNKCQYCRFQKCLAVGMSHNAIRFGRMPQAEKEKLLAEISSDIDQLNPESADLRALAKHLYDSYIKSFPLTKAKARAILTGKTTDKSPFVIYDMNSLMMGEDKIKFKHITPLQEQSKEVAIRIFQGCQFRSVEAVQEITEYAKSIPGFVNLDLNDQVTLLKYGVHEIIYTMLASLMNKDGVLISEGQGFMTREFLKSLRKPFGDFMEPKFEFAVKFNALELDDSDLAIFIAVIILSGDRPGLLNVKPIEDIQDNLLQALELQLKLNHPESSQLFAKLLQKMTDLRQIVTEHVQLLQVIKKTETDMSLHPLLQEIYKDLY

This assay concerns the target full-length human PPARγ (Homo sapiens, UniProt P37231).

Structures are written as SMILES.

For `C=CCc1ccc(O)c(-c2cc(CC=C)ccc2O)c1` [magnolol, reference compound], for the setting “HEK293, 18 h, Emax values ± SD, results as fold induction vs DMSO”, the “Emax PPARγ-dependent luciferase transactivation” value was 4.63 ± 0.55. Further, the “efficacy compared to pioglitazone” value (HEK293, Emax relative to full agonist pioglitazone) was “around 62%”.
